## AlphaSeq binding of Ab-91 heavy chain variants to a spike HR2 peptide

From the AlphaSeq antibody data of Engelhart et al. 2022 (doi:10.1038/s41597-022-01779-4), copy in the FLAb collection.

Antigen: PDVDLGDISGINAS, a 14-residue peptide of the SARS-CoV-2 spike HR2 region.

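Phage display of a naive human antibody library on the peptide gave the parent. The library (AAYL51) carries one to three amino acid substitutions per variant, with no insertions or deletions. The scFvs were displayed on barcoded MATa yeast, the peptide on MATalpha yeast. Binding brings cells together so that they mate, and sequencing counts the barcode pairs among the diploids. A regression on co-assayed BCL2-family reference pairs converts the normalised counts of each replicate to an apparent Kd. Each pool was mated in three replicate cultures.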

Parent: Ab-91, a human scFv built as VL, a 15-residue (Gly4Ser)3 linker, VH. Only the CDRs of the heavy chain vary.
VL: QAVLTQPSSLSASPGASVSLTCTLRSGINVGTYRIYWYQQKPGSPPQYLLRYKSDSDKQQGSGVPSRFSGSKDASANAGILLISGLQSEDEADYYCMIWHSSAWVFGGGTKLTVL
VH: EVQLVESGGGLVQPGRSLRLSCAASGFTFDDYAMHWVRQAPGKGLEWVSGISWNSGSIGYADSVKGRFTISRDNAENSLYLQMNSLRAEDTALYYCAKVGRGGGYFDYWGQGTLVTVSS

Changes read parent residue, position, new residue, counted from the first residue of the VH shown. Scale: log10 of Kd in nM, estimated from mating counts; low values are strong binders. An entry "n.d." has no value in the source: the pair was not observed among the diploids in that replicate. This suggests poor binding but is not conclusive. Nonspecific signal, from three strains lacking the peptide, appeared in 21% of pairings of library AAYL51, centred on 4.54 (5% of these signals below 3.26); values are not corrected for it. For each scFv, signals with the empty controls are counted beside the result, with their mean in brackets.

| # | changes | replicates, log10 nM | control signals |
|---|---|---|---|
| 1 | T28K/F29H/Y32E | n.d. / n.d. / n.d. | 0 of 9 |
| 2 | I51N/K65N/G103W | n.d. / n.d. / n.d. | 0 of 9 |
| 3 | M34V/N54M/V99S | n.d. / n.d. / n.d. | 3 of 9 (3.80) |
| 4 | F29L/S52R/G100W | 5.16 / n.d. / n.d. | 3 of 9 (4.25) |
| 5 | G26C/I51S/V99I | 5.40 / n.d. / n.d. | 6 of 9 (5.00) |
| 6 | S57Y/R101H | 3.75 / 3.38 / 4.13 | 5 of 9 (4.58) |
| 7 | F27I/Y32W/S57M | n.d. / 3.85 / n.d. | 2 of 9 (3.18) |
| 8 | G26S/G102E/G104R | n.d. / n.d. / n.d. | 0 of 9 |
| 9 | V99I/G100R/G104I | 4.45 / 4.10 / 3.89 | 9 of 9 (4.75) |
| 10 | D30W/A61I/G103H | 5.27 / n.d. / n.d. | 1 of 9 (4.20) |
| 11 | I58D/G100I/R101E | 0.64 / 0.72 / -0.12 | 2 of 9 (5.22) |
| 12 | G56C/I58R/V99W | n.d. / n.d. / n.d. | 1 of 9 (3.48) |
| 13 | W53H/N54K/K65G | 4.57 / 5.71 / 5.93 | 5 of 9 (4.81) |
| 14 | W53F/R101E/G102P | n.d. / n.d. / n.d. | 0 of 9 |
| 15 | S55H/I58E | 2.88 / n.d. / n.d. | 1 of 9 (4.02) |
| 16 | S55L/S57Y/R101G | n.d. / n.d. / n.d. | 1 of 9 (3.42) |
| 17 | S55L/F106D | n.d. / n.d. / n.d. | 1 of 9 (3.85) |
| 18 | D30T/M34Q/Y60V | 3.87 / 4.96 / 5.44 | 7 of 9 (4.81) |
| 19 | H35Q/S63A/Y108I | 5.33 / 5.46 / n.d. | 9 of 9 (4.73) |
| 20 | F27K/D31I/F106R | 5.80 / n.d. / 5.74 | 4 of 9 (5.53) |
| 21 | S52P/Y60D/R101V | 4.45 / n.d. / 4.45 | 4 of 9 (4.40) |
| 22 | Y32H/M34P/F106I | 3.58 / n.d. / n.d. | 1 of 9 (4.15) |
| 23 | V64H/F106G/D107R | n.d. / 5.41 / n.d. | 1 of 9 (3.47) |
| 24 | S57W/D107K | 4.96 / 5.49 / n.d. | 2 of 9 (4.33) |
| 25 | D31F/A33W/G56T | n.d. / n.d. / n.d. | 1 of 9 (3.81) |
| 26 | Y32G/D62M/V99F | n.d. / n.d. / n.d. | 1 of 9 (5.03) |
| 27 | T28E/I51K/G56S | n.d. / n.d. / n.d. | 1 of 9 (2.85) |
| 28 | T28M/D62V | 2.90 / 3.04 / 2.98 | 1 of 9 (5.20) |
| 29 | W53I/G56S | 5.36 / 6.65 / n.d. | 4 of 9 (5.36) |
| 30 | V64C/G100H/G104S | n.d. / 5.66 / n.d. | 2 of 9 (4.03) |
| 31 | T28Q/G50T/W53A | n.d. / 3.97 / n.d. | 1 of 9 (3.29) |
| 32 | D31T/S52P/A61Y | 5.08 / 4.93 / n.d. | 1 of 9 (4.24) |
| 33 | G50M/S63I/Y108T | n.d. / n.d. / n.d. | 1 of 9 (2.80) |
| 34 | W53C/A61V/R101A | 5.16 / n.d. / n.d. | 1 of 9 (2.81) |
| 35 | A61Q/V64D/Y108A | 4.38 / 6.02 / 4.30 | 5 of 9 (4.50) |
| 36 | I58R/G103H/Y108S | 4.53 / 4.44 / 3.98 | 4 of 9 (4.57) |
| 37 | Y60T/V99N/G104C | 1.97 / 1.90 / 1.38 | 2 of 9 (4.79) |
| 38 | A33P/G59N/R101F | n.d. / 4.91 / n.d. | 5 of 9 (5.04) |
| 39 | I51W/Y105R/D107C | n.d. / n.d. / n.d. | 1 of 9 (4.28) |
| 40 | F29D/S57L/S63D | n.d. / n.d. / n.d. | 3 of 9 (3.41) |
| 41 | T28P/W53R/S57A | n.d. / n.d. / n.d. | 0 of 9 |
| 42 | H35W/I51P/K65S | 6.45 / n.d. / 4.50 | 3 of 9 (5.17) |
| 43 | M34A/S55F/V99L | n.d. / n.d. / n.d. | 0 of 9 |
| 44 | F29G/S52R/G103V | n.d. / 4.97 / n.d. | 7 of 9 (5.51) |
| 45 | M34K/R101M/G102Q | n.d. / 6.46 / n.d. | 2 of 9 (4.97) |
| 46 | F27Y/Y32V/G102W | 6.11 / 4.44 / n.d. | 4 of 9 (4.98) |
| 47 | S52A/D107R | 3.77 / n.d. / n.d. | 0 of 9 |
| 48 | Y32K/W53A/F106D | 4.98 / 5.91 / 4.02 | 7 of 9 (4.43) |
| 49 | T28P/S55K/G100D | 3.65 / n.d. / 3.44 | 0 of 9 |
| 50 | T28H/D62M/R101F | 1.84 / n.d. / n.d. | 0 of 9 |
| 51 | S55L | 5.45 / n.d. / 3.30 | 1 of 9 (3.90) |

Top 5 of the variants detected in all replicates, tightest first:

changes,"replicates, log10 nM",control signals
I58D/G100I/R101E,0.64 / 0.72 / -0.12,2 of 9 (5.22)
Y60T/V99N/G104C,1.97 / 1.90 / 1.38,2 of 9 (4.79)
T28M/D62V,2.90 / 3.04 / 2.98,1 of 9 (5.20)
S57Y/R101H,3.75 / 3.38 / 4.13,5 of 9 (4.58)
V99I/G100R/G104I,4.45 / 4.10 / 3.89,9 of 9 (4.75)

In this assay the parent's reference entry averaged 1.86; its copy inside this library read 0.88.